From PubChem
Sampled rows, rich in hits. Any-hit rate of the full collection: about 16%.
TDP1 block = TDP1 (human) enzyme inhibition; recombinant TDP1, AlphaScreen DNA substrate cleavage; Q9NUW8; hit rate 0.28% among 350,000; Potency, µM (highest dose often 130 µM), without a hit: at the highest dose activity change, negative = inhibition, most hits filed as inhibitors; note: potency is the fitted concentration of half-maximal effect; % is set by controls: 0 for no effect and ±100 for the full control effect; nearly all actives have a fitted effect of over 40% in size
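Enzyme-compound mixtures sat 15 min at room temperature, followed by a 5 min reaction with 15 nM final substrate and 10 min with AlphaScreen beads. Recombinant human Tdp1 was used at 1 nM final.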
uPA surface inh = blocks generation of uPA at the cell surface. hit rate 0.31% among 330,000. cell surface uPA generation assay, qHTS. Potency, µM (titrated, usually from 38.3 µM), for inactives: at the highest dose activity change, negative = inhibition, hits mostly inhibitors; active = well fitted inhibition curve with a large enough effect; inconclusive = small, poorly fitted or top-dose-only effect; inactive = no such curve, though single readings can be large or run the other way; tested in mouse RAW 264.7 cells; note: potency is the fitted concentration of half-maximal effect; % is set by controls: 0 for no effect and ±100 for the full control effect; nearly all actives have a fitted effect of over 55% in size
TDP1 cell noCPT = qHTS for Inhibitors of human tyrosyl-DNA phosphodiesterase 1 (TDP1): qHTS in cells in absence of CPT; DT40 Tdp1-/- hTDP1 cells, no CPT, ATP luminescence, 48 h; Potency, µM (highest dose often 46.2 µM), without a hit: at the top dose activity change, negative = growth inhibition, most hits filed as inhibitors; hit rate 15% among 420,000; AID 686978, 2013; note: potency is the fitted concentration of half-maximal effect; % is set by controls: 0 for no effect and ±100 for the full control effect; nearly all actives have a fitted effect of over 55% in size
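A cellular qHTS used chicken DT40 cells lacking endogenous Tdp1 but carrying stably transfected human TDP1. Compounds were applied without camptothecin, and cell growth kinetics were judged by ATP-dependent luminescence after ≥48 hr.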
miR-21 FLuc = miR-21 reporter, rising signal. HeLa miR-21 FLuc reporter, luciferase, 48 h. Potency, µM (titrated, usually from 38.3 µM), without a hit: at the top dose reporter change, positive = more light. 340,000 tested, under 10 active. AID 2288; active = well fitted rising curve with a large enough effect; inconclusive = small, poorly fitted or top-dose-only effect; inactive = no such curve, though single readings can be large or run the other way;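 also: % of control where 0% means no effect; miR-21 action dims this reporter so a rising signal means less miR-21 action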
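Compounds were titrated across several concentrations (up to approximately 40 uM) and incubated 48 hours with HeLa miR-21-FLuc reporter cells (miR-21 target sequence downstream of FLuc, endogenous miR-21). Readout was firefly luciferase luminescence after lytic detection reagent.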
DT40 TDP1 CPT = DT40-hTDP1 cell growth loss with CPT; Potency, µM (top dose mostly 46.2 µM), inactives show at the highest dose activity change, negative = growth inhibition, hits mostly inhibitors; chicken DT40 Tdp1-/-;hTDP1 cells + 20 nM CPT, ATP luminescence, 48 h; hit rate 12% among 420,000; AID 686979; note: potency is the fitted concentration of half-maximal effect; % is set by controls: 0 for no effect and ±100 for the full control effect; nearly all actives have a fitted effect of over 55% in size
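Chicken DT40 Tdp1-/- cells complemented with human TDP1, 400 cells/well, exposed to compounds plus 20 nM camptothecin for at least 48 h at 37 C; viability read as ATP content by CellTiter-Glo luminescence.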
* marks the source's active call; other numbers are inactive results; [ ] = another dose, or the depositor's remark. Unless noted, calls come from the whole dose curve; as a rule, active = well fitted curve in the direction sought with a large enough effect; inconclusive = small, poorly fitted or top-dose-only effect, or another doubt; inactive = no such curve, though single readings can be large; an effect the other way counts as inactive or inconclusive.

Cc1ccc(-n2nc(C(=O)O)c(C)c(C#N)c2=O)cc1Cl was read as TDP1 block 4%, uPA surface inh 5%, TDP1 cell noCPT -3%, miR-21 FLuc 0% and DT40 TDP1 CPT -9%.
`O=C(COc1ccccc1F)Nc1nnc(SCc2cc(=O)n3ccccc3n2)s1` gave TDP1 block 0%, TDP1 cell noCPT -3%, miR-21 FLuc -4% and DT40 TDP1 CPT 1%.
Screening N#Cc1nc(-c2ccc(COc3ccccc3)o2)oc1N1CCN(c2ccccc2)CC1 returned TDP1 block 4%, TDP1 cell noCPT -27%, miR-21 FLuc -2% and DT40 TDP1 CPT -2%.
For O=C(N/N=C1/C[C@@H](O)[C@@H](O)[C@@H]2[C@@H]3C(=O)N(C4CCCCC4)C(=O)[C@H]3CC[C@@H]12)OCc1ccccc1 the results were TDP1 block 10%[21 µM].
Screening CCCCNC(=O)N1CCc2ccccc2C1 returned TDP1 block 1%, uPA surface inh -1%, TDP1 cell noCPT -28%, miR-21 FLuc -24% and DT40 TDP1 CPT -23%.
`COc1ccccc1-c1cnc(C(O)c2cccc(C)c2C)[nH]1` (stereo unspecified) gave TDP1 cell noCPT 16µM* and DT40 TDP1 CPT 15µM*.
OC(c1ccc(Cl)cc1)c1ncc(-c2ccccc2F)[nH]1 (stereo unspecified) was read as TDP1 cell noCPT inconclusive and DT40 TDP1 CPT -26%.
For COc1cccc(-c2cnc(C(O)c3ccc(OC)c(F)c3)[nH]2)c1 (stereo unspecified) the results were TDP1 cell noCPT -17% and DT40 TDP1 CPT inconclusive.
`COc1cccc(-c2cnc(C(O)c3ccc(Cl)c(F)c3)[nH]2)c1` (stereo unspecified) gave TDP1 cell noCPT inconclusive and DT40 TDP1 CPT 15µM*.
COc1ccccc1-c1cnc(C(O)c2ccc(Cl)cc2C)[nH]1 (stereo unspecified) was read as TDP1 cell noCPT 18µM* and DT40 TDP1 CPT inconclusive.

Sorted by formula weight (rising): part of the list above.
`COc1ccccc1-c1cnc(C(O)c2cccc(C)c2C)[nH]1` (stereo unspecified) gave TDP1 cell noCPT 16µM* and DT40 TDP1 CPT 15µM*.
`COc1cccc(-c2cnc(C(O)c3ccc(Cl)c(F)c3)[nH]2)c1` (stereo unspecified) gave TDP1 cell noCPT inconclusive and DT40 TDP1 CPT 15µM*.
Screening N#Cc1nc(-c2ccc(COc3ccccc3)o2)oc1N1CCN(c2ccccc2)CC1 returned TDP1 block 4%, TDP1 cell noCPT -27%, miR-21 FLuc -2% and DT40 TDP1 CPT -2%.
`O=C(COc1ccccc1F)Nc1nnc(SCc2cc(=O)n3ccccc3n2)s1` gave TDP1 block 0%, TDP1 cell noCPT -3%, miR-21 FLuc -4% and DT40 TDP1 CPT 1%.

Continued.
Screening COc1ccccc1-c1cnc(C(O)c2c(C)cccc2C)[nH]1 (stereo unspecified) returned TDP1 cell noCPT -29% and DT40 TDP1 CPT inconclusive.
Screening Cc1cc(Cl)ccc1C(O)c1ncc(-c2ccccc2C(F)(F)F)[nH]1 (stereo unspecified) returned TDP1 cell noCPT 15µM* and DT40 TDP1 CPT 26µM*.
Screening CCC1CCc2sc(C(=O)NNC(=O)c3ccncc3)cc2C1 (stereo unspecified) returned uPA surface inh -16%, TDP1 cell noCPT -21% and DT40 TDP1 CPT 4%.
Screening COC(=O)c1ccc(CN2C(=O)C3CCCCC3C2=O)o1 (stereo unspecified) returned TDP1 block 8%, uPA surface inh 9%, TDP1 cell noCPT -4%, miR-21 FLuc 25% and DT40 TDP1 CPT 0%.
`COc1ccc(CNC(=O)[C@@H](NC(=O)C2CCN(C(=O)[C@@H](N)CCSC)CC2)C(C)C)cc1` gave uPA surface inh -13%, TDP1 cell noCPT -2%, miR-21 FLuc 0% and DT40 TDP1 CPT 3%.
`COc1cccc(-c2cnc(C(O)c3ccc(Cl)cc3C)[nH]2)c1` (stereo unspecified) gave TDP1 cell noCPT 16µM* and DT40 TDP1 CPT 23µM*.
For Cc1ccc(O)c(C2=Nc3ccccc3N=C(c3ccco3)C2)c1 the results were TDP1 block 5%, uPA surface inh -2%, TDP1 cell noCPT 13µM*, miR-21 FLuc -3% and DT40 TDP1 CPT inconclusive.
Cc1[nH]c2ccccc2c1CCN(Cc1cccs1)C(=S)Nc1ccccc1 was read as TDP1 block 6%, uPA surface inh 10%, TDP1 cell noCPT inconclusive, miR-21 FLuc inconclusive and DT40 TDP1 CPT inconclusive.
For Cc1[nH]c2ccccc2c1CCN(Cc1cccnc1)C(=S)Nc1ccc(F)cc1 the results were TDP1 block 2%, uPA surface inh 15%, TDP1 cell noCPT 16µM*, miR-21 FLuc 21% and DT40 TDP1 CPT 16µM*.
Cc1[nH]c2ccccc2c1CCN(Cc1cccnc1)C(=S)Nc1cccc(F)c1 was read as TDP1 block 8%, uPA surface inh -1%, TDP1 cell noCPT inconclusive, miR-21 FLuc 25% and DT40 TDP1 CPT inconclusive.
For COc1cccc(NC(=S)N(CCc2c(C)[nH]c3ccccc23)Cc2cccs2)c1 the results were TDP1 block 9%, uPA surface inh inconclusive, TDP1 cell noCPT 16µM*, miR-21 FLuc 6% and DT40 TDP1 CPT inconclusive.
COCCNC(=S)N(CCc1c(C)[nH]c2ccc(F)cc12)Cc1cccs1 was read as TDP1 block 7%, uPA surface inh -10%, TDP1 cell noCPT 23µM*, miR-21 FLuc inconclusive and DT40 TDP1 CPT inconclusive.
`COc1ccc(F)cc1-c1cc(C(=O)NC2CCCCC2)[nH]n1` gave TDP1 cell noCPT -11% and DT40 TDP1 CPT -9%.
Screening O=C(O)CCC(=O)N1N=C(c2ccc(Br)cc2)CC1c1cccc(Br)c1 (stereo unspecified) returned TDP1 block 4%, uPA surface inh -4%, TDP1 cell noCPT -22%, miR-21 FLuc -14% and DT40 TDP1 CPT inconclusive.
`CSc1ccc(CCNC(=O)C2CCCN(S(=O)(=O)N(C)c3ccc(F)cc3)C2)cc1` (stereo unspecified) gave TDP1 block 0%, TDP1 cell noCPT 9.2µM*, miR-21 FLuc inconclusive and DT40 TDP1 CPT 6.5µM*.
For COc1cccc(CNC(=O)C2CCCN(S(=O)(=O)N(C)c3ccc(F)cc3)C2)c1OC (stereo unspecified) the results were TDP1 block -3%, TDP1 cell noCPT 3.7µM*, miR-21 FLuc inconclusive and DT40 TDP1 CPT 3.3µM*.
Screening COc1ccccc1CNC(=O)C1CCCN(S(=O)(=O)c2cnc[nH]2)C1 (stereo unspecified) returned TDP1 block 0%, uPA surface inh 10%, TDP1 cell noCPT 2%, miR-21 FLuc -1% and DT40 TDP1 CPT 5%.
For CN(c1ccc(F)cc1)S(=O)(=O)N1CCCC(C(=O)NCCc2ccccc2)C1 (stereo unspecified) the results were TDP1 block -5%, TDP1 cell noCPT inconclusive, miR-21 FLuc inconclusive and DT40 TDP1 CPT 21µM*.
For Cc1cc(C(=O)NCc2ccc(S(N)(=O)=O)cc2)ccc1[N+](=O)[O-] the results were TDP1 block 2%, uPA surface inh -1%, TDP1 cell noCPT -26%, miR-21 FLuc -7% and DT40 TDP1 CPT -5%.
